From ChEMBL document CHEMBL1149092, “Studies on pyrrolopyrimidines as selective inhibitors of multidrug-resistance-associated protein in multidrug resistance” (J Med Chem, 2004)

Sequences of proteins named here, by UniProt entry; tags and fusion partners are left off. A change or cut given only in a name is not applied to a line headed by its entry.
UniProt P08684, whole entry: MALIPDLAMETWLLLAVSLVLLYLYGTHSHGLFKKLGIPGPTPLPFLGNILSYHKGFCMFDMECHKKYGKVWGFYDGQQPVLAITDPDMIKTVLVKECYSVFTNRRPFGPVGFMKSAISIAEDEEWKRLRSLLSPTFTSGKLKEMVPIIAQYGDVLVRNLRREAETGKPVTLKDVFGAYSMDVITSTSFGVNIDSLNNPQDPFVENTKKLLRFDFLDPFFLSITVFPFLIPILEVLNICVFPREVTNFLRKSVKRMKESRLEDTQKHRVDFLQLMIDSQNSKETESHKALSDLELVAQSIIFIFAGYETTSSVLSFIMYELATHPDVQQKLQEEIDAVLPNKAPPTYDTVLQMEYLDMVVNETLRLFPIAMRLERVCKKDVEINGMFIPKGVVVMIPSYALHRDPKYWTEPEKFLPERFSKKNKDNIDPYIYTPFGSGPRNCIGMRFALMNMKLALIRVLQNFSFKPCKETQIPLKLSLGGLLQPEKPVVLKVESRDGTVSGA
UniProt P33527: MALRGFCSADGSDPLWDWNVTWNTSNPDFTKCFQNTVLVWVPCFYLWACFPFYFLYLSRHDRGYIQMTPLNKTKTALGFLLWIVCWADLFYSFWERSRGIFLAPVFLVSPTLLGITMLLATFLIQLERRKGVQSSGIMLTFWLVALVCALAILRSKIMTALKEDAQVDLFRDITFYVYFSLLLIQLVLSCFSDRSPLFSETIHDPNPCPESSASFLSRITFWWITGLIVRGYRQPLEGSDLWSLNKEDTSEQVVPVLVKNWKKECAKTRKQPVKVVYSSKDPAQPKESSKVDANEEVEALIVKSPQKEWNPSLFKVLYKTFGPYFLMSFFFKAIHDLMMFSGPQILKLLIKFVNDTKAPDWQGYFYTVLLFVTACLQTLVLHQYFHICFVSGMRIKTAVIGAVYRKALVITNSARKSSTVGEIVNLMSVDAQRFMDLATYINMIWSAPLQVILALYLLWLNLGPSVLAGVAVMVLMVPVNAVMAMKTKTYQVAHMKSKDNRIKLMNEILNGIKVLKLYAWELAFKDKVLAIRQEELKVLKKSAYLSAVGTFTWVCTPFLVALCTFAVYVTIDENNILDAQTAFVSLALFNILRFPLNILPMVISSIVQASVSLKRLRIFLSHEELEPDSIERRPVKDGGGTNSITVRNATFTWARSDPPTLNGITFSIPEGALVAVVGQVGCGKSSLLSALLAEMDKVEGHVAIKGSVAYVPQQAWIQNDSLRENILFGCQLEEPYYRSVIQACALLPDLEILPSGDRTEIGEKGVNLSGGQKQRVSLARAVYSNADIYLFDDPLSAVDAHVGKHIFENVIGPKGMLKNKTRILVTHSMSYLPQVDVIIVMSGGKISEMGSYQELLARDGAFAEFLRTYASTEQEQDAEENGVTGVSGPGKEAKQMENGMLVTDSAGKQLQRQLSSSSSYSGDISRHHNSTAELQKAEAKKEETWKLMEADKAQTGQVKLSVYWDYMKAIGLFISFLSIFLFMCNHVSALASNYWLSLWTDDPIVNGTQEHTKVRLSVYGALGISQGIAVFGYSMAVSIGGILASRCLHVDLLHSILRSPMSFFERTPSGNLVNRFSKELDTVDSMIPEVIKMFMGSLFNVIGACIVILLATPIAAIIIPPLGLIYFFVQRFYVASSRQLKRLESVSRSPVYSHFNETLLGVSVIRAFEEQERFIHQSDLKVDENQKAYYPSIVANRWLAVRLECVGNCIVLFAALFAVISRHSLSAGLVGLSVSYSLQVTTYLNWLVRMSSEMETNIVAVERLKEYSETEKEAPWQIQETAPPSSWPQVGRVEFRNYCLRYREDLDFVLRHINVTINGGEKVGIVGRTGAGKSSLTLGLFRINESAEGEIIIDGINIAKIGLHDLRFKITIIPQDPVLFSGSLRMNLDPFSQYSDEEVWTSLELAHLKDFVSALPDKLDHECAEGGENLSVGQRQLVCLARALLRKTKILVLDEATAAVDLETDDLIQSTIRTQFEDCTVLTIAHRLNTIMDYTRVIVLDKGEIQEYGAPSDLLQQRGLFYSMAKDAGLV

Tests used:
[1] = target: Cytochrome P450 3A4 (Homo sapiens, UniProt P08684); assay: Inhibitory concentration to inhibit MRP1 in CYP 3A4 assay
Outline: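 Human liver microsomes (0.1 mg/mL) were incubated at 37 °C with testosterone (110 μM) and modulator (0.1–100 μM). NADPH generating system started the reaction; methanol stopped it after 10 min. 6β-Hydroxytestosterone was measured by HPLC-UV at 300 nm. IC50 came from percent control activity versus concentration; mean of ≥3 experiments.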

[2] = target: Multidrug resistance-associated protein 1 (Homo sapiens, UniProt P33527); assay: Inhibitory activity against human transporter MRP1 (Multidrug resistance associated protein 1) expressed in COR.L23/R cell line
Outline: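 Tritiated daunomycin (0.3 μCi/mL) accumulation in COR.L23/R cells (MRP-expressing human NSCLC MDR subline), seeded 48 h before the assay. Compounds were serially diluted from 100 to 0.015 μM and incubated 2 h at 37 °C. Cells were washed and cell-associated radioactivity measured. 100% accumulation was set with 100 μM verapamil. IC50 is the mean of ≥3 experiments.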

IC50 [1] [nM] | IC50 [2] [nM] | SMILES
9730 | 76 | O=C(Nc1cccnc1)c1c2n(c3c(N4CCN(CCc5ccc(F)c(F)c5)CC4)ncnc13)CCCC2
> 100000 | 120 | CCNC(=O)c1c2n(c3c(N4CCN(CCc5ccc(F)c(F)c5)CC4)ncnc13)CCCC2
